This passage reports IC50 results from PMC5700923, “Second messenger analogues highlight unexpected substrate sensitivity of CD38: total synthesis of the hybrid “L-cyclic inosine 5′-diphosphate ribose”” (Scientific Reports, 2017).

The chains behind the UniProt entries cited, without tags or fusion partners. Residues count along the entry.
UniProt P28907, 45-300 limits assumed: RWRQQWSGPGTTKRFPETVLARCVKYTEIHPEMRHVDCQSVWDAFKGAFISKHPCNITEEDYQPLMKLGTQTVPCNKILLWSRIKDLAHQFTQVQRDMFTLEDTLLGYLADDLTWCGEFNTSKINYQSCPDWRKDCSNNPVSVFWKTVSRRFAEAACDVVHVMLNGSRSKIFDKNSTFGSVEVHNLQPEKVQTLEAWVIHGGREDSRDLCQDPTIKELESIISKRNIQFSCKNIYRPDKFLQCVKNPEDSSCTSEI

The experiment has as its target T1, CD38 (shCD38) (Homo sapiens, UniProt P28907).
T1 construct: human CD38 catalytic domain (shCD38)
The experiment can be described thus: inhibition of cADPR hydrolysis, fluorimetric cycling assay. The note with it: read-out: L-Ribose / IC50. The class given is biochemical.

Regarding `O=c1c2nc(Br)n3c2ncn1[C@H]1O[C@@H](COP(=O)(O)OP(=O)(O)OC[C@H]2O[C@@H]3[C@H](O)[C@@H]2O)[C@H](O)[C@@H]1O` [compound 6, 8-Br-L-cIDPR], the IC50 worked out at 7 ± 1 µM.
